# Earlier results in patent US5480969A, “Antagonists of LHRH” (The Administrators of the Tulane Educational Fund, priority 1992, dated 1996).
# Assays:
# [1] = system: rats; conditions: Table V; cited from earlier work
# [2] = system: rat mast cells; conditions: Table V; cited from earlier work
substance,measurement,setting,value
"[N-Ac-D-2-Nal^1, D-pClPhe^2 D-3-Pal^3, D-Cit^6, D-Ala^10 ] LHRH [SB-75]","column 1.5 (AOA, head not given)",[1],75
same,Histamine release ED50,[2],1.5 µg/mL
